Experimental data published in ChEMBL document CHEMBL1123259, “Probes for narcotic receptor mediated phenomena. 13. Potential irreversible narcotic antagonist-based ligands derived from 6,14-endo-ethenotetrahydronororipavine with 7-(methoxyfumaroyl)amino, (bromoacetyl)amino, or isothiocyanate electrophiles: chemistry, biochemistry, and pharmacology” (1986).
Calls of active or inactive are those of the source. The calls are words filed in the database; no cut-off is given here.

Columns and labels:
[1] = system: Mus musculus; test: In vivo antagonist/agonist nature after subcutaneous administration at 2 mg/Kg to mice using hot plate assay; Inactive
[2] = system: Mus musculus; test: In vivo antagonist/agonist nature after subcutaneous administration at 20 mg/Kg to mice using hot plate assay; Inactive

SMILES | ED50 [1] | ED50 [2]
C=CCN1CC[C@]23c4c5ccc(O)c4O[C@H]2C2(OC)C=C[C@@]3(C[C@@H]2NC(=O)/C=C/C(=O)OC)[C@H]1C5 | inactive | inactive
COC(=O)/C=C/C(=O)N[C@H]1C[C@@]23C=CC1(OC)[C@@H]1Oc4c(O)ccc5c4[C@@]12CCN(CC1CC1)[C@@H]3C5 | inactive | inactive
COC12C=C[C@@]3(C[C@@H]1N=S)[C@H]1Cc4ccc(O)c5c4[C@@]3(CCN1CC1CC1)[C@H]2O5 | inactive | inactive
C=CCN1CC[C@]23c4c5ccc(O)c4O[C@H]2C2(OC)C=C[C@@]3(C[C@@H]2N=S)[C@H]1C5 | inactive | inactive
CO[C@]12C=C[C@@]3(C[C@@H]1N)[C@H]1Cc4ccc(O)c5c4[C@@]3(CCN1CC1CC1)[C@H]2O5 | inactive | inactive
C=CCN1CC[C@]23c4c5ccc(O)c4O[C@H]2C2(OC)C=C[C@@]3(C[C@@H]2NC(=O)CBr)[C@H]1C5 | inactive | inactive
CO[C@]12C=C[C@@]3(C[C@@H]1NC(=O)CBr)[C@H]1Cc4ccc(O)c5c4[C@@]3(CCN1CC1CC1)[C@H]2O5 | inactive | inactive
